Measured values published in article doi:10.1101/2022.03.02.482667 (bioRxiv, 2022).

Target: His-tagged full-length G3BP1 F15W (human, UniProt Q13283 1-466, F15W)
Test: pull-down

B1: Cytoplasmic Activating/Proliferation Associated Protein 1 (Caprin1) (natural protein)
chain: MPSATSHSGSGSKSSGPPPPSGSSGSEAAAGAGAAAPASQHPATGTGAVQTEAMKQILGVIDKKLRNLEKKKGKLDDYQERMNKGERLNQDQLDAVSKYQEVTNNLEFAKELQRSFMALSQDIQKTIKKTARREQLMREEAEQKRLKTVLELQYVLDKLGDDEVRTDLKQGLNGVPILSEEELSLLDEFYKLVDPERDMSLRLNEQYEHASIHLWDLLEGKEKPVCGTTYKVLKEIVERVFQSNYFDSTHNHQNGLCEEEEAASAPAVEDQVPEAEPEPAEEYTEQSEVESTEYVNRQFMAETQFTSGEKEQVDEWTVETVEVVNSLQQQPQAASPSVPEPHSLTPVAQADPLVRRQRVQDLMAQMQGPYNFIQDSMLDFENQTLDPAIVSAQPMNPTQNMDMPQLVCPPVHSESRLAQPNQVPVQPEATQVPLVSSTSEGYTASQPLYQPSHATEQRPQKEPIDQIQATISLNTDQTTASSSLPAASQPQVFQAGTSKPLHSSGINVNAAPFQSMQTVFNMNAPVPPVNEPETLKQQNQYQASYNQSFSSQPHQVEQTELQQEQLQTVVGTYHGSPDQSHQVTGNHQQPPQQNTGFPRSNQPYYNSRGVSRGGSRGARGLMNGYRGPANGFRGGYDGYRPSFSNTPNSGYTQSQFSAPRDYSGYQRDGYQQNFKRGSGQSGPRGAPRGRGGPPRPNRGMPQMNTQQVN
percent reduction in co-purification against WT: ~98%
